{"source": "patent US12194158B2", "about": "“Oromucosal nanofiber carriers for therapeutic treatment” (Instar Technologies A.S., priority 2016, dated 2025)", "origin": "cited, not measured here", "conditions": "in water at 25° C.; cited from earlier work", "data": [{"substance": "Human serum albumin [HSA]", "values": [{"measurement": "isoelectric point (pI)", "value": "~4.7"}]}]}
